Source: publication PMC6450568 (Bioorganic & medicinal chemistry letters, 2019)

Molecular target: T1, native MDH (malate dehydrogenase) reporter enzyme (Sus scrofa, UniProt P00346)
T1 sequence (P00346 25-338): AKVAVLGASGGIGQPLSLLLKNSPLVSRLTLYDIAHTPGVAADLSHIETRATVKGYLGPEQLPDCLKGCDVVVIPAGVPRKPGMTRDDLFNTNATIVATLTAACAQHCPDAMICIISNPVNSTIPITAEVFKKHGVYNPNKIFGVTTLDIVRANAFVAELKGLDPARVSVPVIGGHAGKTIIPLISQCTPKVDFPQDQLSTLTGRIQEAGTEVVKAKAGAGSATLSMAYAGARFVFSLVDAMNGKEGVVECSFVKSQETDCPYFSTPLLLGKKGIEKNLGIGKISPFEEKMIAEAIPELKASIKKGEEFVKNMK
Assay: Native MDH enzymatic reporter counter-screen
Assay type: biochemical

IC50 | Compound
> 63 µM | CC1=NCCc2c1[nH]c1cc(O)ccc21 [Compound 54, Harmalol]
> 63 µM | CC1=C(/C=C/C(C)=C/C=C/C(C)=C/C(=O)O)C(C)(C)CCC1 [Compound 25, Retinoic acid]
